# Measured values from PubChem BioAssay AID720704 (The Scripps Research Institute Molecular Screening Center, 2013).
# Amino acid sequences for entries named in this document (tags omitted).
# UniProt Q01970, whole entry: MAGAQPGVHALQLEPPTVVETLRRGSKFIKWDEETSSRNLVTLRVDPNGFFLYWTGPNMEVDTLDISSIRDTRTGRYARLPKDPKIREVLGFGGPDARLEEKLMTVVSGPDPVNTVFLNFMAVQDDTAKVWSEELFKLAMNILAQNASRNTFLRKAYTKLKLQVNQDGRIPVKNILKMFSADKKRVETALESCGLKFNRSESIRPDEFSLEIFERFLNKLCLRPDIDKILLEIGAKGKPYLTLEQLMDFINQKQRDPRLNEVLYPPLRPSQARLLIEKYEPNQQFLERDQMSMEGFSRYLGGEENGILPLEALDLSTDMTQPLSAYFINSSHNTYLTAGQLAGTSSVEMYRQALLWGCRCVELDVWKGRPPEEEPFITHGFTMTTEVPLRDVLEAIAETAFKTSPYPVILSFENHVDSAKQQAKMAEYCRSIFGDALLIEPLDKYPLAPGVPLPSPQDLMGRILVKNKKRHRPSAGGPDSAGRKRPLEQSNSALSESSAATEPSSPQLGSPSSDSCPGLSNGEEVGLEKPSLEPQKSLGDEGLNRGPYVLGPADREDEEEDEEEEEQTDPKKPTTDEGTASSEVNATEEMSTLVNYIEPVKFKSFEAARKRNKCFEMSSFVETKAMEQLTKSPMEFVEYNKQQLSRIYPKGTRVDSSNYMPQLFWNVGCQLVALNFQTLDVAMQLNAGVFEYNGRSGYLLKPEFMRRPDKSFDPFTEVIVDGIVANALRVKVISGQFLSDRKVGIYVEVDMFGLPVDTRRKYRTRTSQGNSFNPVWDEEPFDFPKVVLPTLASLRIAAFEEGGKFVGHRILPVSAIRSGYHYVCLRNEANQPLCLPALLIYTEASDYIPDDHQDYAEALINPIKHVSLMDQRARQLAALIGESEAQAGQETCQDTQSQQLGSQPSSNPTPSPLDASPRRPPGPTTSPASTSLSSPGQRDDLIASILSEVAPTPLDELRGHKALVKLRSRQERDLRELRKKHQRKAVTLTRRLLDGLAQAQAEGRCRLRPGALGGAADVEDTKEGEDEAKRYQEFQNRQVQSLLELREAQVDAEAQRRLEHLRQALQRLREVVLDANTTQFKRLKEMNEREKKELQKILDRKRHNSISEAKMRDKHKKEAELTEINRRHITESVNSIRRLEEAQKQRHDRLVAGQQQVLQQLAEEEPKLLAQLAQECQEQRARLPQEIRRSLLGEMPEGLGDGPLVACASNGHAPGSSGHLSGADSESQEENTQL
# This is a selection; strong and weak results do not stand in their true shares. Some of these compounds have results that are not shown, active ones among them. Active and inactive are the calls of the source. No stated cut-off is given here; in the data, active means inhibition above about 11%; inactive means the rest.
# Target: 1-phosphatidylinositol 4,5-bisphosphate phosphodiesterase beta-3 (Homo sapiens) (UniProt Q01970)
# Experiment: phospholipase C beta3 enzyme inhibition – biochemical, fluorescence, primary screen (AID 720704);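 further: 0% = median of compound wells on plate and 100% = full blocker control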
# Settings: Purified PLC-beta3, fluorogenic substrate, at 12.2 µM, hits give high values
row,Compound,inhibition
1,CN(C)c1ccc(C(=O)NCC2(N(C)C)CCCCC2)cc1,inactive: -7.15%
2,CN(C)C1CCCC1OC(=O)C(O)(c1ccccc1)c1ccccc1 (stereo unspecified),inactive: 0.68%
3,Cc1ccccc1C(=O)NCC1(N2CCCCC2)CCCCC1,inactive: 3.11%
4,COc1ccc(C(=O)NCC2(N(C)C)CCCCC2)cc1,inactive: -2.69%
5,O=C(NCC1(N2CCCCC2)CCCCC1)c1cccc(Br)c1,inactive: -3.53%
6,CCN1CCCC(OC(=O)C2(O)c3ccccc3C=Cc3ccccc32)C1 (stereo unspecified),inactive: 4.74%
7,Cc1cc(C(=O)NCC2(N3CCCCC3)CCCCC2)ccc1[N+](=O)[O-],inactive: -7.26%
8,O=C(NCC1(N2CCCCC2)CCCCC1)c1cc(F)c(F)cc1Cl,inactive: -2.69%
9,C=CCN1CCN(CCOC(=O)C(O)(c2ccccc2)c2ccccc2)CC1,inactive: 2.36%
10,CN1[C@@H]2CC[C@H]1CC(OC(=O)C(O)(c1ccccc1)c1ccccc1)C2 (stereo partly specified),inactive: -1.83%
11,O=C(NCC1(N2CCCCC2)CCCCC1)c1cc([N+](=O)[O-])ccc1Cl,inactive: -1.9%
12,Cc1ccc(C(=O)NCC2(N3CCCCC3)CCCCC2)cc1,inactive: -5.34%
13,COc1cc(SC)ccc1C(=O)NCC1(N(C)C)CCCCC1,inactive: -4.5%
14,CCN(CC)CC(C)C(C)OC(=O)C(O)(c1ccccc1)c1ccccc1 (stereo unspecified),inactive: 5.01%
15,CC(C)N1C(=O)CC2(CCN(CCOC(=O)C(O)(c3ccccc3)c3ccccc3)CC2)C1=O,inactive: 1.21%
16,O=C(OC1CN2CCC1CC2)C(CO)(c1ccccc1)c1ccccc1 (stereo unspecified),inactive: 2.39%
17,O=C(OCCN1CCCC1)C(O)(c1ccccc1)c1ccccc1,inactive: -4.21%
18,CC(C)Oc1ccc(C(=O)NCC2(N(C)C)CCCCC2)cc1,inactive: -8.12%
19,CN(C)c1cccc(C(=O)NCC2(N(C)C)CCCCC2)c1,inactive: -89%
20,C=C(C)C#CC(O)(C(=O)OC1CCN(C)CC1)c1ccccc1 (stereo unspecified),inactive: -3.01%
21,COc1ccc(Br)c(C(=O)NCC2(N3CCCCC3)CCCCC2)c1,inactive: -9.44%
22,COc1cc(C(=O)NCC2(N(C)C)CCCCC2)c([N+](=O)[O-])cc1OC,inactive: -6.18%
23,CN(C)C1(CNC(=O)c2ccc(Br)cc2)CCCCC1,inactive: -6.82%
24,O=C(NCC1(N2CCCCC2)CCCCC1)c1cccc(Cl)c1,inactive: -7.74%
25,COc1ccc(Cl)cc1C(=O)NCC1(N(C)C)CCCCC1,inactive: 1.45%
26,COc1cccc(C(=O)NCC2(N3CCCCC3)CCCCC2)c1,inactive: 1.67%
